Our source for the Km values is paper PMC4441257, “A large genomic island allows Neisseria meningitidis to utilize propionic acid, with implications for colonization of the human nasopharynx” (Molecular Microbiology, 2014).

In the data set the test system is CC(=O)O. The data set can be described thus: purified protein.

One may read the Km as the substrate concentration at which the rate is half of its maximum. For “NMB1518 (AckA2) (Neisseria meningitidis MC58)”, the Km was 25.7 ± 4.3 mM. With “NMB0435 (AckA1) (Neisseria meningitidis MC58)”, the Km is given as 20.8 ± 4.6 mM.
